{
  "sequences": {"note": "Sequences of proteins named here, by UniProt entry; tags and fusion partners are left off. Residues count along the entry.", "UniProt P03303, 1538-1719": "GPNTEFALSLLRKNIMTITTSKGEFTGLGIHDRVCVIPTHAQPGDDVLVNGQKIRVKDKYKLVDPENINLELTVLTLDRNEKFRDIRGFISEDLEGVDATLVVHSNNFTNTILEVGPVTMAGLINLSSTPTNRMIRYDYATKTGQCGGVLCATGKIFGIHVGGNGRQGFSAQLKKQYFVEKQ"},
  "source": "patent US20040072907A1",
  "about": "“Antipicornaviral compounds, compositions containing them, and methods for their use” (priority 1997, published 2004)",
  "key": {"[1]": {"target": "T1, Recombinant Rhinovirus 3C protease serotype 14 (Human rhinovirus 14, UniProt P03303)", "T1 construct": "Recombinant Rhinovirus 3C proteases from serotypes 14, 16, and 2; made in house", "format": "biochemical", "conditions": "RVP serotype-14; progress curves, enzyme start experiments"}, "HI-HeLa cells": {"tested_on": "HI-HeLa cells", "experiment": "Cytotoxicity in mock-infected HI-HeLa cells (XTT, antirhinoviral assay)", "format": "cell-based", "protocol": "In the Cell Protection Assay, the ability of compounds to protect cells against HRV infection was measured by the XTT dye reduction method. This method is described in Weislow, O. S., Kiser, R., Fine, D. L., Bader, J., Shoemaker, R. H., Boyd, M. R., J. Natl. Cancer Inst. 1989, 81, 577-586, the disclosure of which is incorporated herein by reference.\nHI-HeLa cells were infected with HRV-14 at a multiplicity of infection (m.o.i.) of 0.13 (virus particles/cell) or mock-infected with medium only. Infected or mock-infected cells were resuspended at 8×10^5 cells per mL and incubated with appropriate concentrations of compounds of formula I. Two days later, XTT/PMS was added to test plates, and the amount of formazan produced was quantified spectrophotometrically at 450/650 nm. […] The therapeutic index (TI) was calculated by dividing the CC50 by the EC50.\nHRV stocks were propagated, and viral assays were performed in HI-HeLa cells (ATCC). Cells were grown in Minimal Essential Medium, available from Life Technologies, with 10% fetal bovine serum."}},
  "data": [
    {"substance": "Ethyl-3-(CBZ-L-LeuΨ[COCH2]-D/L-Phe-L-Gln)-E-Propenoate [Compound 1 + 9 (˜1:1)]", "values": [
      {"measurement": "kobs/I", "setting": "[1]", "value": "5,100 M^−1sec^−1"},
      {"measurement": "CC50", "setting": "HI-HeLa cells; line for HRV serotype 2", "value": "> 320", "unit": "µM"},
      {"measurement": "CC50", "setting": "HI-HeLa cells; line for HRV serotype 10", "value": "> 320", "unit": "µM"},
      {"measurement": "CC50", "setting": "HI-HeLa cells; line for HRV serotype 16", "value": "> 320", "unit": "µM"},
      {"measurement": "CC50", "setting": "HI-HeLa cells; line for HRV serotype 89", "value": "> 320", "unit": "µM"}
    ]}
  ]
}
